Results on one compound are retold here after ChEMBL document CHEMBL1130318, “Inhibition of stromelysin-1 (MMP-3) by P1'-biphenylylethyl carboxyalkyl dipeptides” (J Med Chem, 1997).

Amino acid sequences for entries named in this document (tags omitted). A change or cut given only in a name is not applied to a line headed by its entry.
UniProt P08254: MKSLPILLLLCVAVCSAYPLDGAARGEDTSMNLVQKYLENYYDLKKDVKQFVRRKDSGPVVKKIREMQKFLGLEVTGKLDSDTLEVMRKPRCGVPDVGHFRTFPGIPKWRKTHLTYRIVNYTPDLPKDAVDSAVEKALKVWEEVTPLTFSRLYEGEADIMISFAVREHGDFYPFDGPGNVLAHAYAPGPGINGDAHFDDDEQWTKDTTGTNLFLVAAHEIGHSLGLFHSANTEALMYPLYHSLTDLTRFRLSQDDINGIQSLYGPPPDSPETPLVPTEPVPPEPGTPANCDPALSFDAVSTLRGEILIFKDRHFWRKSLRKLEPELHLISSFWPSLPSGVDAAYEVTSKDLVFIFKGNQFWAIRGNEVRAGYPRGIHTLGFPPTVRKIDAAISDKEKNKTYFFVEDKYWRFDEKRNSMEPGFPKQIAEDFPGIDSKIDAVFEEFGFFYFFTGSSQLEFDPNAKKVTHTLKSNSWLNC

The experiment deals with Stromelysin-1 (Homo sapiens, UniProt P08254).

Broadly, the Ki is a dissociation constant, usually derived from enzyme kinetics or from competition with a known ligand. In turn, `CC(C)C[C@H](NC(=O)[C@H](CCc1ccc(-c2ccc(F)cc2)cc1)C[C@H](CCCCN1Cc2ccccc2C1=O)C(=O)O)C(=O)Nc1ccccc1` [L-764004] had a Ki of 2 nM.
